From US20160139118A1, “NOVEL ASSAY” (GLAXOSMITHKLINE INTELLECTUAL PROPERTY (NO.2) LIMITED, priority 2013, published 2016)

Chains of the proteins cited; added tags and fusions are not shown. Residues count along the entry.
UniProt P05156, 19-583: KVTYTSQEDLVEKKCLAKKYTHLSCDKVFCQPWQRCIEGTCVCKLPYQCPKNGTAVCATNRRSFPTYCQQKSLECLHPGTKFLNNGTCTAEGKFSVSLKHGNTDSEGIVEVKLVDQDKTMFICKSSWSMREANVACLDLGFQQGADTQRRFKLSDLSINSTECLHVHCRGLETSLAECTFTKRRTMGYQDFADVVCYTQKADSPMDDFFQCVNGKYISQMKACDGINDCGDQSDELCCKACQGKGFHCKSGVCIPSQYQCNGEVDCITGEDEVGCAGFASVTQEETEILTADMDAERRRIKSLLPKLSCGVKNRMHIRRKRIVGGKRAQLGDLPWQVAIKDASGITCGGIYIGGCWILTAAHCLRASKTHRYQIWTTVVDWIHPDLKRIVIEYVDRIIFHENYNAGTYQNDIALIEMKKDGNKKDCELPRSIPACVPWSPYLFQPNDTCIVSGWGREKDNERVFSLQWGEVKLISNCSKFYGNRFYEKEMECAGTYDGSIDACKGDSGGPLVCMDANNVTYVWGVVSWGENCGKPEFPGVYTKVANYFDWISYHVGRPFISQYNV

Target: Complement factor I, purified human serum protein (Complement Technology) (human) (UniProt P05156)
Experiment: cell-based or functional assay

EC50 of CFI in cofactor assay in the presence of 200 µM BAM1-42 (Lot 2, aged 7 days without sonication): 3.32 µg/mL
inhibition of CFI bioactivity, BAM 1-42 Lot 1 at day 3 and day 8: 100%
Substance: Amyloid Beta-Protein (1-42) (from UniProt P05067 672-713) (peptide)
